Biological target: histone deacetylase, subtype 1 (HDAC1) (Homo sapiens (Human), UniProt Q13547)
Assay: HDAC1-Flag in vitro deacetylation assay
Type: biochemical
Details: IP = inflection point
Method: Novel compounds were tested for their ability to inhibit histone deacetylase, subtype 1 (HDAC1) using an in vitro deacetylation assay. The enzyme source for this assay was an epitope-tagged human HDAC1 complex immuno-purified from stably expressing mammalian cells. The substrate consisted of a commercial product containing an acetylated lysine side chain (BIOMOL Research Laboratories, Inc., Plymouth Meeting, Pa.). Upon deacetylation of the substrate by incubation with the purified HDAC1 complex, a fluorophore is produced that is directly proportional to the level of deacetylation.

By UniProt entry, the sequences of proteins in these tests, tags left out.
UniProt Q13547, whole entry: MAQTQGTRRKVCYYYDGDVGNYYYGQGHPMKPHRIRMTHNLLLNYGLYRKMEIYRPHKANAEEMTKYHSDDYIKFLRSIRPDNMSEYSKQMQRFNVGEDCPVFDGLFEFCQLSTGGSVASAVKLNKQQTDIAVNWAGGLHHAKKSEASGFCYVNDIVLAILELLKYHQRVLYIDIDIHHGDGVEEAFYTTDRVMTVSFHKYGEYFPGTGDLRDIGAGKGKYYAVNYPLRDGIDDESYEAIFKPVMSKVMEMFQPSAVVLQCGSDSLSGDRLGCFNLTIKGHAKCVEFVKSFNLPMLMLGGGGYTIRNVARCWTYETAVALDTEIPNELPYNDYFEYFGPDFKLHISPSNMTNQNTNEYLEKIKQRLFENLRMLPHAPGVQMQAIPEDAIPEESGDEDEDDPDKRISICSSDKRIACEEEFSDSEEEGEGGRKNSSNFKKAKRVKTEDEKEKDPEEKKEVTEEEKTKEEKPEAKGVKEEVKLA

IC50: 58 nM
SMILES: Nc1ccc(-c2ccccc2)cc1NC(=O)c1ccc(CNC(=O)OCc2ccccc2)cc1 [Example 15, phenylmethyl[(4-{[(4-aminobiphenyl-3-yl)amino]carbonyl}phenyl)methyl]carbamate]

From patent publication US9096559B2, “4-carboxybenzylamino derivatives as histone deacetylase inhibitors” (Merck Sharp & Dohme Corp., priority 2007, dated 2015)
